The values below are quoted from earlier work in patent US20050075275A1, “Regulation of the apj receptor for use in the treatment or prophylaxis of cardiac diseases” (Bayer Aktiengesellschaft, priority 2001, published 2005).

The chains behind the UniProt entries cited, without tags or fusion partners. Where a name states a change or a piece, a line headed by the entry shows the natural chain unless it says otherwise.
UniProt Q9JHG3: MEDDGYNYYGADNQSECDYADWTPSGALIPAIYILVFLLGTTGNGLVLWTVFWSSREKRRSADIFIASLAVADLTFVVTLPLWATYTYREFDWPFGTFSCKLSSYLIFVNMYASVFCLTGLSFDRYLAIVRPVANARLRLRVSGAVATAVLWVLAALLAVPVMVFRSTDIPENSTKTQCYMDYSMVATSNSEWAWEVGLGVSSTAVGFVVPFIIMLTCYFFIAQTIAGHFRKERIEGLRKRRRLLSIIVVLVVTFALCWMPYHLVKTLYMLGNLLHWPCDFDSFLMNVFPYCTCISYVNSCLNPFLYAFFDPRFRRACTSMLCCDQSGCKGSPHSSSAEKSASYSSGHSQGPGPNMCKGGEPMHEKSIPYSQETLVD

Where two headings read alike, the source gives them in different places.

The target of data set [1] is T1, APJ receptor (Rattus norvegicus, UniProt Q9JHG3). Particulars: dehydrogenated rats, direct administration in the brain; cited from earlier work.
Data set [2] has as its target T1, APJ receptor. The conditions noted are these: rats, systemic administration; cited from earlier work.

On to apelin, for which, on APJ receptor [1], the blood pressure entry is on record as “without having an effect on blood pressure” and the water uptake entry is reported as “inhibition of water uptake”. On APJ receptor [2], the blood pressure entry is “reduction in blood pressure” and the heart rate entry was “without a change in the heart rate”.
